Values quoted from earlier work as cited in patent US20260382581A1, “COMPOSITIONS COMPRISING CYTISINE IN THE TREATMENT AND/OR PREVENTION OF ADDICTION IN SUBJECTS IN NEED THEREOF” (published 2026).

What was measured:
smokers [1] = conditions: EAGLES, U.S. region; listed as Varenicline; cited from earlier work
smokers [2] = conditions: in vivo; cited from earlier work
[3] = system: neuronal alpha4, beta2 (α4β2) receptors; conditions: cited from earlier work

Compound | CAR weeks 9-24 (95% CI) (smokers [1]) | comparative efficacy in smoking cessation (smokers [2]) | binding to neuronal α4β2 receptors [3]
c1cnc2cc3c(cc2n1)[C@@H]1CNC[C@H]3C1 | 16.1 (14.0-18.4) % | more effective than single NRT and bupropion | 
CN1CCCC1c1cccnc1 (stereo not drawn) |  |  | bind strongly and preferentially
